PubChem BioAssay AID1508602 (The Scripps Research Institute Molecular Screening Center, 2020)
The entries are a selection whose mix differs from that of the whole data set. Some tests of the compounds listed are not included; inactive here does not mean inactive elsewhere. Active and inactive are the calls of the source. Cut-off read from the data, not from the text of the source: active = activation above about 4.9%; inactive = the rest.

By UniProt entry, the sequences of proteins in these tests, tags left out.
UniProt Q8TDV0, whole entry: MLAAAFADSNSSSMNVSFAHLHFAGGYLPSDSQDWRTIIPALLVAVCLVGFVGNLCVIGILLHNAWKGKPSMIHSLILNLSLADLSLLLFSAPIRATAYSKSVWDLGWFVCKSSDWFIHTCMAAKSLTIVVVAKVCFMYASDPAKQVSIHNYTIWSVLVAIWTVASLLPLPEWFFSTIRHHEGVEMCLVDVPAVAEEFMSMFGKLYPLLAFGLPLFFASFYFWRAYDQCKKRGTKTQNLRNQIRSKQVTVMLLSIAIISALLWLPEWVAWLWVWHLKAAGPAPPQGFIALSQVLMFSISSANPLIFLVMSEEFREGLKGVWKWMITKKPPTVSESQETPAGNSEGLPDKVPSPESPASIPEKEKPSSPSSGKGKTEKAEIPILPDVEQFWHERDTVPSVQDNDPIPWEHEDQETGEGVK

Each compound was assayed against G-protein coupled receptor 151 (Homo sapiens) (UniProt Q8TDV0) (assay: activators of human GPR151, primary screen, cell-based, PathHunter beta-arrestin, luminescence (AID 1508602;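 note: 0% = median of compound wells and 100% = cells with positive control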)). Settings: PathHunter beta-arrestin GPR151 cells, at 11.2 µM, stronger effect = higher value.
For CC(=O)N(Cc1cccnc1)C1CCN(CCc2cccs2)CC1, the activation was inactive: -2.31%. In the case of O=C(c1ccco1)N(Cc1ccco1)C1CCN(CCc2cccs2)CC1, the activation was inactive: 0.325%.
